Assay results published in patent US7786308B2 (priority 2005, dated 2010).
Some compounds may have been tested in ways that are not shown here.

Protein sequences, listed by entry. Tags and fused reporters are not part of them.
UniProt P11229, whole entry: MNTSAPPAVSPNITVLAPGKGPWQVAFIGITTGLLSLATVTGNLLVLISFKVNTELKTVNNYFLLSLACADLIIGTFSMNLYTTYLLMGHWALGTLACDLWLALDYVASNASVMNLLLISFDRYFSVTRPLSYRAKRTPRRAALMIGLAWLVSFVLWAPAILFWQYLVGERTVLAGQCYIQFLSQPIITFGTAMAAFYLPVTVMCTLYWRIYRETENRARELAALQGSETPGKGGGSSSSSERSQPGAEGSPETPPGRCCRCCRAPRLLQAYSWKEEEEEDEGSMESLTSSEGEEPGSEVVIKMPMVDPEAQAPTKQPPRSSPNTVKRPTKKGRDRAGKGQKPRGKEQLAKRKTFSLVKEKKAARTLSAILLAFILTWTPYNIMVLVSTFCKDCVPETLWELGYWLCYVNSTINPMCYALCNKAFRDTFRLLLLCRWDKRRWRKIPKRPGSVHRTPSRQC
UniProt P08172, whole entry: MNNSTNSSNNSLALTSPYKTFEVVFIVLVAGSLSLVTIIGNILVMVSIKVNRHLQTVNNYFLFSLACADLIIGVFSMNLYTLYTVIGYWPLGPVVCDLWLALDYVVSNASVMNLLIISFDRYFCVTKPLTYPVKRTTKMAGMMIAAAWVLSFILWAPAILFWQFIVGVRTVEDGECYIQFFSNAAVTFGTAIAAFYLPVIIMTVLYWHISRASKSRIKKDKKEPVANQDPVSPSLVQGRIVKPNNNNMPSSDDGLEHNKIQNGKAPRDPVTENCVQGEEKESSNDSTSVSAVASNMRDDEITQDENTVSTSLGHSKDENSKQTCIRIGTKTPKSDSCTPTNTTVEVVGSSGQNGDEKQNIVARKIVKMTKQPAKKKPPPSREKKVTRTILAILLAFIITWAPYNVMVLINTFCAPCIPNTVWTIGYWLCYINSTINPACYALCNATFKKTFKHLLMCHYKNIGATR
UniProt P20309, whole entry: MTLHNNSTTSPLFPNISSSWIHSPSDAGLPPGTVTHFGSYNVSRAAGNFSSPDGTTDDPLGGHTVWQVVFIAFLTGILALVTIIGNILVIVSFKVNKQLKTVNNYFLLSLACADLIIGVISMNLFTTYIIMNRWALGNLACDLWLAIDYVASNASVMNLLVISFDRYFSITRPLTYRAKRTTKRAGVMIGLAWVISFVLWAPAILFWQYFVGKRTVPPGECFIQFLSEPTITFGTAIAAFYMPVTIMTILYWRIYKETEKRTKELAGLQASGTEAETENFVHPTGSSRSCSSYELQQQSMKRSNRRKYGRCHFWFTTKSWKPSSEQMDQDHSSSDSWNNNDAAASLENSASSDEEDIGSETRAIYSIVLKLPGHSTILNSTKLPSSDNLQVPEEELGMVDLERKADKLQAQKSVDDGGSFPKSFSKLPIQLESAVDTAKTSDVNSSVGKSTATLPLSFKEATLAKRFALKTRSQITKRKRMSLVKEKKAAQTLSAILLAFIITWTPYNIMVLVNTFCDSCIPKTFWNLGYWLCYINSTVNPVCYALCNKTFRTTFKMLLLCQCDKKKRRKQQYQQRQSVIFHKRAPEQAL
UniProt P08173, whole entry: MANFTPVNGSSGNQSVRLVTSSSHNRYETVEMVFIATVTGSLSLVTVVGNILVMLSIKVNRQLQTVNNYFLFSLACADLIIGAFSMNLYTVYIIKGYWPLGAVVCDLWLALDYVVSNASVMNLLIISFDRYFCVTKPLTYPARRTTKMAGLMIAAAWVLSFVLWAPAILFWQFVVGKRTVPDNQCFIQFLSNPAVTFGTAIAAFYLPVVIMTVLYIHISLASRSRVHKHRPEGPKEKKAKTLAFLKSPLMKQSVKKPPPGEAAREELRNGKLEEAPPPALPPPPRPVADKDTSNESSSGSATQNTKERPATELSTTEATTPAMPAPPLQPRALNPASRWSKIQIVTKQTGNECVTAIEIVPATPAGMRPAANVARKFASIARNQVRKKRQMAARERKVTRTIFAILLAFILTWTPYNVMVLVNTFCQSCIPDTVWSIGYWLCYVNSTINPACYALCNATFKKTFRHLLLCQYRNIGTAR

Experiments:
Type in all cases: cell-based
Conditions in all cases: 100% efficacy is the maximum response obtained with the Carbachol control
M1 muscarinic receptor = M1 muscarinic receptor (Homo sapiens, UniProt P11229); assay: Functional mobilization of intracellular calcium (FLIPR), M1-CHO cells
M2 muscarinic receptor = M2 muscarinic receptor (Homo sapiens, UniProt P08172); assay: Functional mobilization of intracellular calcium (FLIPR), M2-CHO cells
M3 muscarinic receptor = M3 muscarinic receptor (Homo sapiens, UniProt P20309); assay: Functional mobilization of intracellular calcium (FLIPR), M3-CHO cells
M4 muscarinic receptor = M4 muscarinic receptor (Homo sapiens, UniProt P08173); assay: Functional mobilization of intracellular calcium (FLIPR), M4-CHO cells

Row | Compound | M1 Efficacy (M1 muscarinic receptor) | M2 Efficacy (M2 muscarinic receptor) | M3 Efficacy (M3 muscarinic receptor) | M4 Efficacy (M4 muscarinic receptor)
1 | CC(=O)N(c1ccc(F)cc1)C1CCN(C2CC3CCC(C2)N3C(=O)c2ccccc2)CC1 (centres unmarked) | ++ (efficacy was calculated to be from 100% to 25%) | + (efficacy was calculated to be less than 25%) | + (efficacy was calculated to be less than 25%) | + (efficacy was calculated to be less than 25%)
2 | CCCNC(=O)N(c1ccc(F)cc1)C1CCN(C2CCOCC2)CC1 | + (efficacy was calculated to be less than 25%) | + (efficacy was calculated to be less than 25%) |  | + (efficacy was calculated to be less than 25%)
3 | CC(=O)N(c1ccc(F)cc1)C1CCN(C2CC3CCC(C2)N3C(=O)OC(C)C)CC1 (centres unmarked) | ++ (efficacy was calculated to be from 100% to 25%) | + (efficacy was calculated to be less than 25%) | + (efficacy was calculated to be less than 25%) | + (efficacy was calculated to be less than 25%)
4 | CC(=O)N(c1ccc(F)cc1)C1CCN(C2CC3CCC(C2)N3C(=O)OCC(C)(C)C)CC1 (centres unmarked) | ++ (efficacy was calculated to be from 100% to 25%) | + (efficacy was calculated to be less than 25%) | + (efficacy was calculated to be less than 25%) | + (efficacy was calculated to be less than 25%)
5 | CCCOC(=O)N1C2CCC1CC(N1CCC(N(C(C)=O)c3ccc(F)cc3)CC1)C2 (centres unmarked) | ++ (efficacy was calculated to be from 100% to 25%) | + (efficacy was calculated to be less than 25%) | + (efficacy was calculated to be less than 25%) | + (efficacy was calculated to be less than 25%)
6 | CCOC(=O)N1C2CCC1CC(N1CCC(N(C(C)=O)c3ccc(-c4ccccc4)cc3)CC1)C2 (centres unmarked) | ++ (efficacy was calculated to be from 100% to 25%) | + (efficacy was calculated to be less than 25%) | + (efficacy was calculated to be less than 25%) | ++ (efficacy was calculated to be from 100% to 25%)
7 | CCC(=O)N1C2CCC1CC(N1CCC(N(C(C)=O)c3ccc(F)cc3)CC1)C2 (centres unmarked) | ++ (efficacy was calculated to be from 100% to 25%) | + (efficacy was calculated to be less than 25%) | + (efficacy was calculated to be less than 25%) | + (efficacy was calculated to be less than 25%)
8 | COC(=O)N1C2CCC1CC(N1CCC(N(C(C)=O)c3ccc(F)cc3)CC1)C2 (centres unmarked) | ++ (efficacy was calculated to be from 100% to 25%) | + (efficacy was calculated to be less than 25%) | + (efficacy was calculated to be less than 25%) | ++ (efficacy was calculated to be from 100% to 25%)
9 | CCOC(=O)N1C2CCC1CC(N1CCC(N(C(C)=O)c3cccc(C)c3)CC1)C2 (centres unmarked) | ++ (efficacy was calculated to be from 100% to 25%) | + (efficacy was calculated to be less than 25%) | + (efficacy was calculated to be less than 25%) | ++ (efficacy was calculated to be from 100% to 25%)
10 | CC#CCON=C1CCC(N2CCC(N(C(C)=O)c3ccc(F)cc3)CC2)CC1 (centres unmarked) | ++ (efficacy was calculated to be from 100% to 25%) | + (efficacy was calculated to be less than 25%) | + (efficacy was calculated to be less than 25%) | ++ (efficacy was calculated to be from 100% to 25%)
11 | CCOC(=O)N1CCC(N2CCC(N(C(C)=O)c3ccc(F)cc3)CC2)CC1 | ++ (efficacy was calculated to be from 100% to 25%) | + (efficacy was calculated to be less than 25%) | ++ (efficacy was calculated to be from 100% to 25%) | ++ (efficacy was calculated to be from 100% to 25%)
12 | CCOC(=O)N1C2CCC1CC(N1CCC(N(C(C)=O)c3ccc(C)cc3)CC1)C2 (centres unmarked) | ++ (efficacy was calculated to be from 100% to 25%) | + (efficacy was calculated to be less than 25%) | ++ (efficacy was calculated to be from 100% to 25%) | ++ (efficacy was calculated to be from 100% to 25%)
13 | CC(=O)N(c1ccc(F)cc1)C1CCN(C2CC3CCC(C2)N3C(=O)OC2CCC2)CC1 (centres unmarked) | ++ (efficacy was calculated to be from 100% to 25%) | + (efficacy was calculated to be less than 25%) | + (efficacy was calculated to be less than 25%) | + (efficacy was calculated to be less than 25%)
14 | CC(=O)N(c1ccc(F)cc1)C1CCN(C2CC3CCC(C2)N3C(=O)OCC(F)F)CC1 (centres unmarked) | ++ (efficacy was calculated to be from 100% to 25%) | + (efficacy was calculated to be less than 25%) | + (efficacy was calculated to be less than 25%) | + (efficacy was calculated to be less than 25%)
15 | CCOC(=O)N1C2CCC1CC(N1CCC(N(C(C)=O)c3ccc(F)cc3)CC1)C2 (centres unmarked) | ++ (efficacy was calculated to be from 100% to 25%) | + (efficacy was calculated to be less than 25%) | + (efficacy was calculated to be less than 25%) | ++ (efficacy was calculated to be from 100% to 25%)
16 | CCOC(=O)N1C2CCC1CC(N1CCC(N(C(C)=O)c3cccc(C(=O)OC)c3)CC1)C2 (centres unmarked) | ++ (efficacy was calculated to be from 100% to 25%) | + (efficacy was calculated to be less than 25%) | + (efficacy was calculated to be less than 25%) | + (efficacy was calculated to be less than 25%)
17 | COC(=O)N(c1ccc(F)cc1)C1CCN(C2CC3CCC(C3)C2)CC1 (centres unmarked) | ++ (efficacy was calculated to be from 100% to 25%) | + (efficacy was calculated to be less than 25%) | + (efficacy was calculated to be less than 25%) | ++ (efficacy was calculated to be from 100% to 25%)
18 | COCCOC(=O)N1C2CCC1CC(N1CCC(N(C(C)=O)c3ccc(F)cc3)CC1)C2 (centres unmarked) | ++ (efficacy was calculated to be from 100% to 25%) | + (efficacy was calculated to be less than 25%) | + (efficacy was calculated to be less than 25%) | ++ (efficacy was calculated to be from 100% to 25%)
19 | CCOC(=O)N1C2CCC1CC(N1CCC(N(C(C)=O)c3ccccc3)CC1)C2 (centres unmarked) | ++ (efficacy was calculated to be from 100% to 25%) | + (efficacy was calculated to be less than 25%) | + (efficacy was calculated to be less than 25%) | ++ (efficacy was calculated to be from 100% to 25%)
20 | CCOC(=O)N1C2CCC1CC(N1CCC(N(C(=O)N(C)C)c3ccc(F)cc3)CC1)C2 (centres unmarked) | ++ (efficacy was calculated to be from 100% to 25%) | + (efficacy was calculated to be less than 25%) | + (efficacy was calculated to be less than 25%) | ++ (efficacy was calculated to be from 100% to 25%)
21 | CC(=O)N(c1ccc(F)cc1)C1CCN(C2CC3CCC(C2)N3C(=O)OCC(C)C)CC1 (centres unmarked) | ++ (efficacy was calculated to be from 100% to 25%) | + (efficacy was calculated to be less than 25%) | + (efficacy was calculated to be less than 25%) | + (efficacy was calculated to be less than 25%)
22 | CCCON=C1CCC(N2CCC(N(C(C)=O)c3ccc(F)cc3)CC2)CC1 (centres unmarked) | ++ (efficacy was calculated to be from 100% to 25%) | + (efficacy was calculated to be less than 25%) |  | ++ (efficacy was calculated to be from 100% to 25%)
23 | CCCNC(=O)N(c1ccc(F)cc1)C1CCN(C2CCN(C(=O)OCC)CC2)CC1 | ++ (efficacy was calculated to be from 100% to 25%) | + (efficacy was calculated to be less than 25%) |  | ++ (efficacy was calculated to be from 100% to 25%)
24 | CCCNC(=O)N(c1ccc(F)cc1)C1CCN(C2CC3CCC2C3)CC1 (centres unmarked) | + (efficacy was calculated to be less than 25%) | + (efficacy was calculated to be less than 25%) |  | + (efficacy was calculated to be less than 25%)
25 | CCCNC(=O)N(c1ccc(F)cc1)C1CCN(C2CC3CCC(C2)N3C(=O)OCC)CC1 (centres unmarked) | ++ (efficacy was calculated to be from 100% to 25%) | ++ (efficacy was calculated to be from 100% to 25%) |  | ++ (efficacy was calculated to be from 100% to 25%)
26 | CCCNC(=O)N(c1ccc(F)cc1)C1CCN(CC2CC3CCC2C3)CC1 (centres unmarked) | + (efficacy was calculated to be less than 25%) | + (efficacy was calculated to be less than 25%) |  | + (efficacy was calculated to be less than 25%)
